Measurements taken from published antibiotic growth screens (doi:10.1038/s41589-023-01349-8).
This is one part of the list.

What follows are compounds tested on A. baumannii ATCC 17978 (assay: relative growth (fraction of control); higher = less inhibition). Conditions: 50 µM.
`NC(=O)c1ccccc1O` was tested, and the relative growth was 1.04.
`C[C@@H]1CN([C@@H](C)CO)S(=O)(=O)c2ccc(C#Cc3ccncc3)cc2O[C@@H]1CN(C)C(=O)C1CCC1` was tested, and the relative growth was 0.942.
For `CC(=O)N[C@H]1CC[C@@H](CCNC(=O)C2CC2)O[C@@H]1CO`, the relative growth was 0.964.
`Nc1ncnc2nc(N3CCCCC3)[nH]c12` showed a relative growth of 1.11.
In the case of `NC(=O)CSc1nnnn1-c1cccc(O)c1`, the relative growth is reported as 1.03.
For `CC(CCC(=O)O)[C@H]1CCC2C3CC[C@@H]4C[C@H](O)CC[C@]4(C)C3CC[C@@]21C` (stereo partly specified), the relative growth was 1.25.
`COc1cc2c(cc1OC)-c1cc3ccc(OC)c(OC)c3c[n+]1CC2.[Cl-]` showed a relative growth of 1.05.
In the case of `CCC(=O)N[C@@H]1C=C[C@@H](CC(=O)OC)O[C@@H]1CO`, the relative growth is reported as 1.06.
Work on `CC1(C)CCC(c2ccc(Cl)cc2)=C(CN2CCN(c3ccc(C(=O)NS(=O)(=O)c4ccc(N[C@H](CCN5CCOCC5)CSc5ccccc5)c(S(=O)(=O)C(F)(F)F)c4)cc3)CC2)C1` yielded a relative growth of 1.09.
Compound `CNC[C@H]1Oc2cc(C#CCN(C)C)ccc2S(=O)(=O)N([C@@H](C)CO)C[C@H]1C` has a relative growth of 1.17.
With `COc1ccc(C(=O)CCC(=O)O)c2ccccc12` the relative growth was 1.18.
Work on `CCc1ccc(NC(=O)Cc2coc3ccc(C(C)C)cc23)cc1` yielded a relative growth of 1.04.
Work on `Cc1ccc(NC(=O)C[C@@H](N)C(=O)O)cc1` yielded a relative growth of 0.899.
`Nc1nc(F)nc2c1ncn2[C@@H]1O[C@H](COP(=O)(O)O)[C@@H](O)[C@@H]1O` gave a relative growth of 1.03.
Work on `CN1CCN(C(=O)C[C@H]2CC[C@H]3[C@@H](COC[C@H](O)CN3C(=O)C3CCOCC3)O2)CC1` yielded a relative growth of 1.12.
With `COc1cccc(-c2ccc3c(c2)O[C@H](CN(C)C(=O)C2CC2)[C@@H](C)CN([C@H](C)CO)S3(=O)=O)c1` the relative growth was 1.12.
Compound `COc1cc2c(cc1OC)C1C(=O)c3c(O)cc4c(c3OC1CO2)C=CC(C)(C)O4` (stereo not drawn) [alpha-TOXICAROL (dl)] has a relative growth of 1.06.
For `CCOC(=O)N1CCC(=C2c3ccc(Cl)cc3CCc3cccnc32)CC1`, the relative growth was 0.967.
With `C[C@H]1CN([C@@H](C)CO)S(=O)(=O)c2ccc(C#CCN(C)C)cc2O[C@@H]1CN(C)Cc1ccc(F)cc1` the relative growth was 0.692.
`N[C@H](CC(=O)O)C(=O)O` showed a relative growth of 1.15.
Work on `C[C@@H]1CN([C@@H](C)CO)C(=O)c2cc(C#Cc3ccccc3)cnc2O[C@H]1CN(C)S(=O)(=O)c1ccccc1F` yielded a relative growth of 1.06.
`COc1ccccc1S(=O)(=O)N[C@H]1C=C[C@@H](CC(=O)N2CCN(C)CC2)O[C@@H]1CO` showed a relative growth of 0.951.
With `Cl.Nc1ccn([C@@H]2O[C@H](CO)[C@@H](O)C2(F)F)c(=O)n1` the relative growth was 0.845.
In the case of `CCOc1nn(CC)cc1C(=O)O`, the relative growth is reported as 1.12.
`COc1ccccc1CNC(=O)C[C@@H]1C[C@@H]2c3cc(NC(=O)c4cccnc4)ccc3O[C@@H]2[C@@H](CO)O1` was tested, and the relative growth was 1.04.
Compound `O=C(Nc1ccccc1C(=O)O)c1nnc[nH]1` has a relative growth of 1.11.
Work on `OC[C@@H](O)[C@@H](O)[C@@H](O)CO` yielded a relative growth of 1.03.
`CCCc1nc(C(C)(C)O)c(C(=O)OCc2oc(=O)oc2C)n1Cc1ccc(-c2ccccc2-c2nn[nH]n2)cc1` gave a relative growth of 0.948.
`CCN(CC)C(=O)N1CCN(C)CC1.O=C(O)CC(O)(CC(=O)O)C(=O)O` gave a relative growth of 1.1.
With `COC(=O)C[C@H]1C(C)(C)[C@@H](OC(C)=O)[C@@H]2CC3=C4CC(=O)O[C@@H](c5ccoc5)[C@]4(C)CCC3[C@@]1(C)C2=O` (stereo partly specified) the relative growth was 0.975.
`C=CCOC(=O)[C@H]1[C@@H]2C(=O)O[C@@H](c3ccccc3)[C@@H](c3ccccc3)N2[C@@H](c2ccc(OCCOC(=O)[C@H]3C[C@H]4C(=O)N[C@@H](CCCCNC(C)=O)C(=O)N4[C@H]3c3ccc(O)cc3)cc2)[C@]12C(=O)Nc1ccc(I)cc12` showed a relative growth of 1.72.
Compound `Nc1nc2nc[nH]c2c(=S)[nH]1` has a relative growth of 0.991.
With `CCCC(=O)Nc1ccc2c(c1)C(=O)N(C)[C@H]1CC[C@H](CC(=O)NCCN3CCCCC3)O[C@H]1CO2` the relative growth was 0.939.
`NC(=O)N[C@@H](CCC(=O)O)C(=O)O` gave a relative growth of 1.36.
`CC(C)OC(=O)c1nnc(N)[nH]1` was tested, and the relative growth was 0.943.
`CCCC12CN3CC(CCC)(CN(C1)C3[C@@H](O)[C@@H](O)[C@@H](O)CO)C2=O` (stereo partly specified) was tested, and the relative growth was 1.
Compound `S=C(Nc1ccccc1)Nc1ccc2c(c1)oc1ccccc12` has a relative growth of 0.59.
Work on `CN(C)CC(=O)N[C@H]1CC[C@H](CCNC(=O)C2CCC2)O[C@H]1CO` yielded a relative growth of 1.02.
`COc1cc(OC)c2c(=O)c(OC)c(-c3ccccc3)oc2c1` showed a relative growth of 0.918.
`c1ccc(Oc2nnc(-c3ccccc3)c3ccccc23)cc1` showed a relative growth of 0.997.
`Cl.NC(N)=N/C(N)=N/CCc1ccccc1` showed a relative growth of 0.868.
`N[C@H](C(=O)O)[C@@H](OCc1ccccc1)C(=O)O` showed a relative growth of 0.968.
`CO[C@@H]1CN(C)C(=O)c2ccc(NC(C)=O)cc2OC[C@@H](C)N(S(=O)(=O)c2cn(C)cn2)C[C@@H]1C` showed a relative growth of 1.06.
Work on `C[C@H]1CN([C@@H](C)CO)C(=O)c2cc(C#Cc3cccnc3)cnc2O[C@H]1CN(C)Cc1ccc(F)cc1` yielded a relative growth of 0.945.
For `O=C(CN1CCOCC1)N[C@@H]1CC[C@H](CCn2cc(C3CCCC3)nn2)O[C@H]1CO`, the relative growth was 0.995.
`CC(=O)O` showed a relative growth of 1.08.
`CC[C@@H](C)c1ccc(NC(=O)c2cc3ccccc3o2)cc1` showed a relative growth of 1.03.
Work on `COCCOC(=O)N1C(=O)[C@@]2(c3cc(C#CC4(O)CCCCCC4)ccc31)[C@H](c1ccc(O)cc1)N1[C@H](c3ccccc3)[C@H](c3ccccc3)OC(=O)[C@H]1[C@@H]2C(N)=O` yielded a relative growth of 1.04.
`OCCN1CCN(c2ncnc3c2ncn3[C@H]2CN(Cc3ccc(Cl)cc3)C[C@@H](CO)O2)CC1` gave a relative growth of 1.06.
`C=CCN1C(=O)[C@]2(O[C@H](CCO)[C@@H]([Si](C)(C)c3ccc(OC)cc3)[C@@H]2C)c2cc(NC(=O)[C@H](C)O)ccc21` was tested, and the relative growth was 0.632.
`Cc1ccc(S[C@]2(C(=O)NCCN3CCOCC3)CC(=O)N(Cc3cc(C(F)(F)F)cc(C(F)(F)F)c3)[C@@H]2c2ccc(CO)cc2)cc1` showed a relative growth of 0.872.
Compound `COCC(=O)N(C)C[C@H]1Oc2cc(C#CCC3CCCC3)ccc2S(=O)(=O)N([C@H](C)CO)C[C@H]1C` has a relative growth of 0.763.
With `COCC#Cc1ccc2c(c1)O[C@@H](CN(C)C(=O)CN(C)C)[C@@H](C)CN([C@H](C)CO)S2(=O)=O` the relative growth was 0.984.
`O=C(Cc1ccccn1)NCC[C@H]1CC[C@@H](NC(=O)CN2CCOCC2)[C@@H](CO)O1` was tested, and the relative growth was 1.15.
Work on `O=C(C[C@@H]1C=C[C@@H](NC(=O)c2ccc(F)cc2)[C@@H](CO)O1)NCc1ccncn1` yielded a relative growth of 0.97.
For `Cc1nccn1CC1CCc2c(c3ccccc3n2C)C1=O.Cl` (stereo unspecified), the relative growth was 0.967.
With `Cc1cc(C)nc(N2CC(=O)NC2=N)n1` the relative growth was 0.995.
In the case of `Cc1ccc(S(=O)(=O)N(C)C[C@@H]2Oc3ncc(C#CCC(C)C)cc3C(=O)N([C@H](C)CO)C[C@H]2C)cc1`, the relative growth is reported as 0.985.
`CCN(CC)CC#CCOC(=O)C(O)(c1ccccc1)C1CCCCC1.Cl` (stereo unspecified) was tested, and the relative growth was 1.22.
For `O=C1[C@@H]2[C@@H](C(=O)N1CCO)[C@@H]1C=C[C@@H]2C1`, the relative growth was 1.11.
For `O=C(Cc1cccs1)N1c2ccccc2Sc2ccccc21`, the relative growth was 1.03.
`O=C(O)Cc1ccc(-c2ccccc2)cc1` showed a relative growth of 0.924.
`O=C(O)c1ccc(O)c(O)c1` gave a relative growth of 1.19.
Work on `COc1ccccc1CNC(=O)C[C@@H]1CC[C@@H]2[C@H](COC[C@H](O)CN2C(=O)Nc2ccc(Cl)cc2)O1` yielded a relative growth of 0.927.
Work on `c1ccc(Oc2cccc(Oc3ccccc3)c2)cc1` yielded a relative growth of 0.884.
For `COCC(=O)N(C)C[C@H]1Oc2cc(C#CC(C)(C)O)ccc2S(=O)(=O)N([C@H](C)CO)C[C@H]1C`, the relative growth was 1.08.
`COCC(=O)N1C[C@@H](C)[C@H](OC)CN(C)C(=O)c2ccc(NC(=O)c3cc(C)on3)cc2OC[C@@H]1C` was tested, and the relative growth was 1.03.
`CN(C)CC(=O)N[C@@H]1CC[C@@H](CCn2cc(CN(C)C)nn2)O[C@@H]1CO` gave a relative growth of 1.02.
With `CC(C)C#Cc1ccc2c(c1)O[C@H](CN(C)C(=O)c1cccc(F)c1)[C@@H](C)CN([C@H](C)CO)S2(=O)=O` the relative growth was 0.922.
With `CC(=O)N1CCC2(CCCN2)CC1` the relative growth was 1.03.
Work on `O=C(O)CCN=C1NC(=O)CS1` yielded a relative growth of 1.1.
`C=CC[C@H](CC(=O)NCCO)C(=O)N[C@H](COC(=O)[C@H](CC=C)CC(=O)OC(C)(C)C)Cc1c[nH]c2ccccc12` gave a relative growth of 0.863.
For `COCCNC(=O)C[C@H]1CC[C@H](NS(=O)(=O)c2ccc(C)cc2)[C@@H](CO)O1`, the relative growth was 1.03.
`OC[C@@H](O)[C@@H](O)[C@@H](O)/C=N/Nc1ccccc1` gave a relative growth of 0.949.
`COc1ccc(CCNC(=O)c2cc3c(=O)n4cccc(C)c4nc3n(CCCN3CCOCC3)c2=N)cc1` was tested, and the relative growth was 0.898.
In the case of `CCCCCCCCCCCCCCCCCCOCC(O)CO` (stereo unspecified), the relative growth is reported as 1.03.
`N#Cc1ccc(C(c2ccc(C#N)cc2)n2cncn2)cc1` gave a relative growth of 1.06.
`O=C(C[C@H]1C[C@@H]2c3cc(NC(=O)Nc4ccc(C(F)(F)F)cc4)ccc3O[C@@H]2[C@@H](CO)O1)NC1CCCCC1` showed a relative growth of 1.16.
In the case of `Clc1ccc(CCC(Cn2ccnc2)Sc2c(Cl)cccc2Cl)cc1` (stereo unspecified), the relative growth is reported as 0.997.
In the case of `CCCCCc1c2c(cc(O)c1C(=O)O)OC(=O)c1c(cc(OC)cc1C(=O)CCCC)O2`, the relative growth is reported as 1.24.
With `CC(C)CC(N)=O` the relative growth was 0.913.
For `O=C(O)/C=C/C(=O)NN1C(=O)c2ccccc2C1=O`, the relative growth was 0.889.
`C[C@H](CO)N1C[C@H](C)[C@@H](CN(C)S(=O)(=O)c2ccc(F)cc2)Oc2cc(Br)ccc2S1(=O)=O` was tested, and the relative growth was 0.988.
Work on `C/C(=C\CC[C@@H](C)[C@H]1C[C@@H](O)[C@@]2(C)[C@H]3CC[C@H]4C(C)(C)[C@@H](O[C@@H]5O[C@@H](CO[C@H]6O[C@@H](CO)[C@@H](O)[C@@H](O)[C@@H]6O)[C@@H](O)[C@@H](O)[C@@H]5O)CC[C@@]45C[C@@]35C[C@@H](O)[C@]12C)C(=O)O[C@H]1O[C@@H](CO)[C@@H](O)[C@@H]1O` yielded a relative growth of 1.02.
Compound `CO[C@H]1CN(C)C(=O)c2cc(NC(=O)NC3CCCCC3)ccc2OC[C@@H](C)N(CCc2ccccc2)C[C@@H]1C` has a relative growth of 1.05.
`CC(C)NCC(O)COc1cccc2ccccc12.Cl` (racemic) was tested, and the relative growth was 0.67.
